# Laboratory results reported in PubChem BioAssay AID1359 (The Scripps Research Institute Molecular Screening Center, 2008).
# Protein sequences, listed by entry. Tags and fused reporters are not part of them.
# UniProt P49146, whole entry, looked up: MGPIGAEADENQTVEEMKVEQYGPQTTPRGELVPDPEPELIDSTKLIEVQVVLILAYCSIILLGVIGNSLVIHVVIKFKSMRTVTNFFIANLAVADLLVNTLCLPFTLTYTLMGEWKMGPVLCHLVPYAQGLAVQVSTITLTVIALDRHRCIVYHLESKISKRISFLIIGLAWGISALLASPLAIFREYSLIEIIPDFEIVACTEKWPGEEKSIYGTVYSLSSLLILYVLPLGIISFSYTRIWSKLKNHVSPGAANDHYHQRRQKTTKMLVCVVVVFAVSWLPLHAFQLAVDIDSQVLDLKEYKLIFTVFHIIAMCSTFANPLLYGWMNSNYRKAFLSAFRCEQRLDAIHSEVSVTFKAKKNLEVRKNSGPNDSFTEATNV
# Where “and” joins values, the source holds several entries; their conditions need not be identical. Equal entries are not always repeated. Only a part is listed here, and it is no random draw. Calls of active or inactive are those of the source. No stated cut-off is given here; in the data, active means activation above about 27%; inactive means the rest.
# Target: Neuropeptide Y receptor type 2 (Homo sapiens) (UniProt P49146)
# Assay: human Y2 receptor positive modulation or activation – cell-based, primary screen (AID 1359);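 further: cells stimulated with NPY near EC25 plus isoproterenol at EC100; 0% = vehicle plus submaximal agonist and 100% = vehicle plus saturating agonist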
# Details: cells expressing NPY-Y2, potentiator/agonist read-out; at 3.6 µM; hits give high values
row,SMILES,activation
1,ClCCSc1nnc(-c2cccnc2)o1,inactive: -5.69%
2,CC(C)c1ccc(OP(=O)(Nc2ccccn2)Oc2ccccc2F)cc1 (configuration not stated),inactive: -4.03%
3,COc1cc(I)ccc1[As](=O)(O)O,inactive: 7.03%
4,COc1ccc2nc(NP(=O)(c3ccccc3)c3ccccc3)sc2c1,inactive: -6.26%
5,Cc1c2c(nc3ccccc13)SC(C(Cl)Cl)C2 (configuration not stated),inactive: -2.55%
6,Cc1cc(=O)[nH]c(N[N+](=O)[O-])n1,inactive: 3.63%
7,O=C(OC1CN2CCC1CC2)C12CC3CC(CC(C3)C1)C2 (configuration not stated),inactive: -9.6%
8,COc1ccc(N/C(=N/P(=O)(N2CCOCC2)N2CCOCC2)N2CCOCC2)cc1,inactive: -6.09%
9,CN1CCCC(OC(=O)C(c2ccccc2)c2ccccc2)C1 (configuration not stated),inactive: 12.7%
10,Clc1ccc(Cl)c(NC2=NCC(CBr)S2)c1 (configuration not stated),inactive: 9.42%
11,Cc1ccc(OP(=O)(Nc2nccs2)Oc2ccc(C)cc2)cc1,inactive: -10.8%
12,COc1ccccc1OP(=O)(Nc1ccc(C)cn1)Oc1ccccc1OC,inactive: -6.9%
13,Cc1ccc(N/C(=N/P(=O)(N2CCOCC2)N2CCOCC2)N2CCOCC2)cc1,inactive: -2.07%
14,NC(=O)c1cc([N+](=O)[O-])cc([N+](=O)[O-])c1N,inactive: -3.5%
15,O=C(NC(Sc1ccncn1)C(Cl)(Cl)Cl)c1ccccc1 (configuration not stated),inactive: 0.3%
16,Cc1c2non([O-])c-2c(C)[n+](=O)[n+]1[O-],inactive: 4.66%
17,Oc1ccccc1CNc1ccccn1,inactive: 11.3%
18,Nc1cc(N)c2nonc2c1[N+](=O)[O-],inactive: -10.4%
19,CC(C)CC(=O)NC(Sc1ccc(Cl)cc1)C(Cl)(Cl)Cl (configuration not stated),inactive: -13.3%
20,Cc1ccc(NP(=O)(Oc2ccccc2F)Oc2ccccc2F)nc1,inactive: 9.44%
21,Cc1cc(SC(NC(=O)c2ccc(F)cc2)C(Cl)(Cl)Cl)ncn1 (configuration not stated),inactive: 2.7%
22,CCOP(=O)(Nc1ccccc1)OCC,inactive: -6.77% and inactive: 19.8%
23,O=P(Nc1nc2ccc(Cl)cc2s1)(c1ccccc1)c1ccccc1,inactive: 5.18%
24,CC(=O)Nc1ccc([As](=O)(O)O)cc1,inactive: -1.78%
25,O=C(O)c1ccccc1[As](=O)(O)O,inactive: 12.4%
26,Nc1cccc2ccc([As](=O)(O)O)cc12,inactive: 3.6%

row,SMILES,activation
1,CCN(N=Nc1nonc1N)c1nonc1N,inactive: 3.01%
2,O=C(Nc1cc([As](=O)(O)O)ccc1O)c1ccccc1,inactive: -10.6%
3,O=C(O)CNc1ccc([As](=O)(O)O)cc1,inactive: -16.6%
4,O=[N+]([O-])c1cccc(NC2=NCC(CBr)S2)c1 (configuration not stated),inactive: 0.35%
5,O=[N+]([O-])c1ncn(CCn2ncnc2[N+](=O)[O-])n1,inactive: 0.7%
6,CC(C)(C)C(=O)NC(Sc1ccncn1)C(Cl)(Cl)Cl (configuration not stated),inactive: -1.38%
7,O=[N+]([O-])c1cc([N+](=O)[O-])c(CCNc2ccccc2)c([N+](=O)[O-])c1,inactive: 7.05%
8,CCc1nc2c(n1)c1c(non1O)c1c2no[n+]1[O-],inactive: -28.4%
9,Cc1ccc(NP(=O)(Oc2ccccc2)Oc2ccccc2)nc1,inactive: -5.93%
10,CC(=O)N1C2C3N(C(C)=O)C1C1N(C(C)=O)C(C(N1C(C)=O)N3C(C)=O)N2C(C)=O,inactive: -17.7%
11,O=[N+]([O-])c1cccc2n[nH]nc12,inactive: -0.2%
12,COc1ccc(C2=NCC(CBr)S2)cc1 (configuration not stated),inactive: 3.73%
13,CC1CCN(C(=O)Oc2c(Cl)cc(Cl)c3cccnc23)CC1,inactive: -1.6%
14,CN(C)C(=O)OCCc1n(C)cc[n+]1C,inactive: 5.92%
15,CC(C)=N/N=C(\N)N[N+](=O)[O-],inactive: -2.18%
16,CCN(/C(=N/P(=O)(N1CCOCC1)N1CCOCC1)N1CCOCC1)c1ccc(OC)cc1,inactive: 7.73%
17,C[N+]1=C2C=CC=CC=C2SC12C([N+](=O)[O-])=CC([N+](=O)[O-])=C[C-]2[N+](=O)[O-] (configuration not stated),inactive: 3.01%
18,Nc1ccc([As](=O)(O)c2ccc(N)cc2)cc1,inactive: -13.3%
19,c1nnnn1CCn1cnnn1,inactive: 5.65%
20,O=P(Nc1nccs1)(c1ccccc1)c1ccccc1,inactive: -14.2%
21,CC(C)C(=O)NC(Sc1ccccc1)C(Cl)(Cl)Cl (configuration not stated),inactive: 13.2%
22,O=P(Nc1nc2ccccc2s1)(c1ccccc1)c1ccccc1,inactive: -7.62%
23,O=P(Nc1ccccn1)(c1ccc(Br)cc1)c1ccc(Br)cc1,inactive: -5.62%
24,O=C(OC1CN2CCC1CC2)c1cccc(Cl)c1 (configuration not stated),inactive: 3.96%
25,C(Cc1nn[nH]n1)Cc1nn[nH]n1,inactive: -1.06%
26,Nc1ccc([As](=O)(O)c2ccc([N+](=O)[O-])cc2)cc1,inactive: -7.06%
